Measurements: US20260041744A1, “Methods for Treating Pompe Disease” (Amicus Therapeutics, Inc., priority 2022, published 2026)
pKd: −log10 of the molar value. Values joined by “and” are separate entries in the source; they are usually repeats but may differ in a detail not shown here. Identical values can stand only once.

Tests used:
[1] = target: cation-independent mannose-6-phosphate receptor (CIMPR), purified (affinity column, coated plates, overlay probe); test: CIMPR affinity column, flow-through against M6P-eluted fraction, measured by GAA activity
[2] = target: cellular receptors (CIMPR) on normal and Pompe patient fibroblasts (human) (UniProt P11717)
[3] = target: cellular receptors (CIMPR) on normal and Pompe patient fibroblasts (human) (UniProt P11717); remark: listed apart in the source
[4] = target: cellular receptors (CIMPR) on normal and Pompe patient fibroblasts (human) (UniProt P11717); test: cell-based or functional assay
[5] = target: cation-independent mannose-6-phosphate receptor (CIMPR), purified (affinity column, coated plates, overlay probe); test: M6P receptor (CIMPR) plate binding assays
[6] = target: cation-independent mannose-6-phosphate receptor (CIMPR), purified (affinity column, coated plates, overlay probe); test: CIMPR affinity column, same conditions as for MYOZYME and LUMIZYME
[7] = target: cation-independent mannose-6-phosphate receptor (CIMPR), purified (affinity column, coated plates, overlay probe); test: CIMPR affinity chromatography of purified ATB200 from different production batches
[8] = target: cation-independent mannose-6-phosphate receptor (CIMPR), purified (affinity column, coated plates, overlay probe); test: CIMPR affinity chromatography; fractions assayed for GAA activity (F460); flow-through peak before the M6P addition, bracketed 'rhGAA lacks M6P; cannot be targeted to lysososmes'
[9] = target: cation-independent mannose-6-phosphate receptor (CIMPR), purified (affinity column, coated plates, overlay probe); test: CIMPR affinity chromatography; fractions assayed for GAA activity (F460); bound material eluted with an M6P gradient up to about 1 mM, then a step to about 5 mM; peak bracketed 'rhGAA contains M6P; targeted to lysososmes'

percent of rhGAA bound (M6P-containing fraction) [1]	percent of rhGAA that did not bind [1]	Kuptake, Pompe fibroblast cell line [2]	Kuptake, normal fibroblast cell line [2]	EC50 (read off the curve); internalized GAA activity in skeletal muscle myoblasts [3]	concentration that saturates cellular receptors (uptake into fibroblasts) [4]	pKd [5]	percent of rhGAA bound [6]	CIMPR receptor binding (percent of rhGAA bound) [7]	fraction of total GAA activity not bound to the CIMPR column (flow-through) [8]	fraction of total GAA activity bound to the CIMPR column and eluted with M6P [9]	uptake efficiency constant (Kuptake) [4]	Substance
27%	73%											MYOZYME® (alglucosidase alfa, conventional rhGAA product) (from UniProt P10253 57-952) (enzyme)
		3 nM	2 nM	10 nM	20 nM	8.40 to 8.70	> 70%	> 70%	30% and 8%	70% and 92%		ATB200 rhGAA (recombinant human acid α-glucosidase produced from CHO cell line GA-ATB200) (from UniProt P10253 57-952) (enzyme)
22%	78%	57 nM	56 nM		250 nM						56 nM	LUMIZYME® (alglucosidase alfa, conventional rhGAA product) (from UniProt P10253 57-952) (enzyme)
